# scFv variants of Ab-14 (light chain) against a SARS-CoV-2 spike peptide

From the AlphaSeq antibody data of Li et al. 2023 (doi:10.1038/s41467-023-39022-2), copy in the FLAb collection.

Target peptide (SARS-CoV-2 spike, HR2 region): PDVDLGDISGINAS

Ab-14 is the parent antibody, in scFv form: VH, then a (GGGGS)3 linker, then VL. The heavy chain is unchanged in all variants.
VH: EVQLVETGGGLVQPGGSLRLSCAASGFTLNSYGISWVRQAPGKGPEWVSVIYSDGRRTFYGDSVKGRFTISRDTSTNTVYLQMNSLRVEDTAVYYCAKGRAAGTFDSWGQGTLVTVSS
VL: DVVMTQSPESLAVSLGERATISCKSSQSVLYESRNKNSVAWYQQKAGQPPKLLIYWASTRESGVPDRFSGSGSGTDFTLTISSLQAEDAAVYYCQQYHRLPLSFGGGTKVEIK

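The parent was found by panning a naive human phage display library on the peptide. This is the validation round: designs drawn from the data on random variants, tested in the same kind of assay. Several design methods are mixed in this list. AlphaSeq pools MATa yeast showing the antibodies with MATalpha yeast showing the peptide. Mating (16 h, 30 °C) was followed by selection of diploids and sequencing of their barcodes. Read counts were normalised to the haploid input and turned into Kd by a linear fit to BCL2-family pairs of known affinity, for each replicate. Each pool was mated in six replicate cultures.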

Variants are written as CDR1, CDR2 and CDR3 of the light chain (limits as in the source). Parent: KSSQSVLYESRNKNSVA, WASTRES, QQYHRLPLS.
Numbers give log10(Kd / nM), so 0 is 1 nM and 3 is 1 µM. Smaller is tighter.
A mean of the replicates is given; it leaves out those without a signal.
"nd" means that the variant was in the library but no mating with the target was seen in any replicate; the authors take this as a sign of poor binding, and no number exists.
Of ten entries with the parent sequence, four were seen in most replicates (averages 0.34 to 2.37), three in one and three in none, so single entries are noisy.

CDR-L1	CDR-L2	CDR-L3	mean, log10 nM	replicates with signal
KMSQSVPYESRNKNSVA	NASTRES	QQYHRLPLS	0.16	6/6
KFGQSVLMGSYVRNSVA	QSNTREN	QQYDRLPLS	0.29	6/6
KLSQSMEYESRNKNSVA	EASTRES	QQYHRLPLS	1.54	5/6
KMEQGVLYESRNKNSVA	GASVRES	QQYHRLPLS	-0.37	6/6
KSSQSVLYESRNKNSVA	EASTRES	QQYYRLPLS	0.54	6/6
KSSQSVLYESRNKNSVA	HASTRES	QQYHRLPES	nd	0/6
RMNKHMSGATEAKNSMA	GVEHRAN	QQYHRLPLS	0.73	6/6
KSSPSVLYESRNKNSVA	NASTRES	QQYHRLPLQ	-0.26	6/6
HLLQTVMYGQSRRNSVA	HAVTREN	QQYHRLPLS	nd	0/6
KLSQSMEYESRNVNSVA	SASTRES	QQYHRLPLM	0.29	6/6
ALGDVTRMESNKKNSIA	DMSNRMD	QQYHRLPLS	-0.14	6/6
KYSQSTLCESRNKNSVA	DASTRES	QQYHRLPLS	-0.10	6/6
KLEQSMLYESRNDNSVA	HASMRES	QQYHRLPLF	-0.18	6/6
KLQQSVPYESRNKNSVA	NASTRMS	QQYHRLPLS	0.24	6/6
KFSQSVLYESRIKNNVA	NASTRES	QQYHRLPLS	-0.12	6/6
KSLQSELYESRNKNSVA	HASTRED	QQYHQLPLS	0.64	6/6
KVSEFMKGLMGRKDSIA	DNTTRNS	QQYDRLPLS	2.15	4/6
KQSNSVLQESRNKNSVA	DASTRES	QQYHRLPLS	-0.17	6/6
KVSQSVFYESRNKNSVA	WASTRFS	QQYHDLPLS	2.25	6/6
KLYSVTGTEKVLGNNVA	EMETRER	QQYNRLPLS	0.18	6/6
HVSEMTFAQMKARNSVA	ENNTRED	QQYDRLPLS	nd	0/6
QISLNGWDGEPYEYAVA	EGTIADA	QQYSRLPLS	2.21	5/6
MLSDLNKMGVRNTSSVA	DNSTRGS	QQYDRLPLS	2.42	6/6
RVQMGDQPGKTARNNIA	DGEEGYR	QQYARLPLT	0.65	6/6
KISQSVLYESVNKNSVA	DASTRES	QQYHRLPLS	-0.14	6/6
KTSQSVLYESRNKNSVA	DASTRES	QQYHRLPLS	0.04	6/6
KLSQSVLYESRNKNQVA	GSSTRMS	QQYHRLPLS	0.26	6/6
TIGGTLMYGMRNRSNVA	EVSQRLN	QQYDRLPLV	1.32	6/6
IAWQSWLYESRNKNSVA	GASTRES	QQYHRLPLI	1.73	6/6
KVSEFMKGLMMRKDSIA	DNTTREN	QQYDRLPLS	2.69	1/6
KQSQSILYESRNLNSVA	KASTRES	QSYTRLPLS	1.43	6/6
KMEQGMLYESRNKNSVA	NASVRES	QQYHRLPLS	-0.14	6/6
KSSESLEYESRNNNSVA	WASARES	QQYHRLPLS	3.13	3/6
KLSMVTGHLSMAKNNVA	EMATREK	QQYERLPLS	1.80	1/6
MMSSLMGYESRHINNVA	QTSTREE	QQYDRLPLI	1.00	6/6
KVSVSYLLESRNKNSVA	EASTRES	QQYHRLPLS	0.43	6/6
KFGQMVLTGAYVSNSVA	QSNTREN	QQYHRLPLS	0.53	6/6
MISSLTMYGSRNKNSVA	DLSTRGS	QQYHRLPLS	0.71	6/6
NLVGRVPDMYDGRNAIA	DMHARAT	QQYFRLPLA	0.38	6/6
KISQSQLYESRNKNSVA	NASQRES	QQYHRLPLS	-0.35	6/6
MISDLMLYGSRAKNPIA	NASTREY	QQYHRLPLE	0.52	6/6
MISQLYNMGQFAINSVA	QATLRNE	QQYDRLPLI	1.20	6/6
ALGTSTLEESRNKNSVA	EMSLREE	QSYNRLPLS	1.08	6/6
TLTQSMDMTSRNVNSVA	DLTTRGN	QQYHRLPLS	0.50	6/6
KLSQSMLYESRNKWSVA	NASTRES	QQYHRLPLS	-0.19	6/6
DSEQSVLYESRNKNSVA	WASTRES	QQYHRLPLS	nd	0/6
KSMFSVPGESRNKNSVA	EASTRCS	QQYHRLPLS	0.81	6/6
KLSQSHLYESRMKNNVA	NASTRES	QQYHRLPLS	0.37	6/6
IISGHMLMESRNKNSVA	NAETREY	QHYDRLPLS	1.52	6/6
KLRFSVMEESRNKNSVA	SASLREW	QQYHRLPLS	0.17	6/6
KLEQSAWLESRNFNAVA	SASQREL	QQYHRLPLS	0.93	6/6
HMSAITLGGMRARNSVA	QMTTREN	QQYDHLPLS	0.77	6/6
KFSQSVDYESRQKNSVA	NASTRLS	QQYHRLPLS	-0.10	6/6
IVSQSVLGESRNLNSVA	QTSERNY	QQYDRLPLS	0.34	6/6
KLQGSDLYESRMKNSVA	QASVRES	QQYHRLPLS	0.34	6/6
KQQQSVLYESRNKNNVA	HASTRED	QQYHRLPLS	-0.40	6/6
QISMLLNFESYKIENVA	QMSTRVN	QQYDRLPLS	0.66	5/6
KLSQSHLYESRNKNNVA	HASTRES	QQYHRLPLS	-0.07	6/6
TLWDSIQGGDWAKKNVA	DEQTRMV	QQYYRLPLS	-0.04	6/6
KLMQFMNRGTHHTSNIA	DAVNRID	QQYYRLPLA	0.79	6/6
QLSMITGHMSVSKNNVA	EMETRVN	QQYDRLPLS	1.45	2/6
YMSMYLDMQQNIQCGVA	DATTRND	QQYQRLPLS	1.31	6/6
KVSWSELYESRNKNSVA	EASTRES	QQYHRLPLS	-0.48	6/6
KSSQLVLYEGVNKNSVA	WASTRES	QQYHRLPLS	1.40	6/6
KSSQSVLYESRNKNSVA	WASTRES	QQYHRLPLF	2.22	4/6

Excerpt, the final 5 entries:

{"CDR-L1": "QLSMITGHMSVSKNNVA", "CDR-L2": "EMETRVN", "CDR-L3": "QQYDRLPLS", "mean, log10 nM": "1.45", "replicates with signal": "2/6"}
{"CDR-L1": "YMSMYLDMQQNIQCGVA", "CDR-L2": "DATTRND", "CDR-L3": "QQYQRLPLS", "mean, log10 nM": "1.31", "replicates with signal": "6/6"}
{"CDR-L1": "KVSWSELYESRNKNSVA", "CDR-L2": "EASTRES", "CDR-L3": "QQYHRLPLS", "mean, log10 nM": "-0.48", "replicates with signal": "6/6"}
{"CDR-L1": "KSSQLVLYEGVNKNSVA", "CDR-L2": "WASTRES", "CDR-L3": "QQYHRLPLS", "mean, log10 nM": "1.40", "replicates with signal": "6/6"}
{"CDR-L1": "KSSQSVLYESRNKNSVA", "CDR-L2": "WASTRES", "CDR-L3": "QQYHRLPLF", "mean, log10 nM": "2.22", "replicates with signal": "4/6"}

The range of this assay differs from that of the first round, and the authors advise against merging the two.
Nonspecific signal, from three strains lacking the peptide, appeared in 4% of pairings of all light chain designs, centred on 2.64 (5% of these signals below 1.59); values are not corrected for it.
The authors' rule: three or more of the six replicates give a measured affinity, fewer mean a poor binder.